The text below walks through data of US20080081781A1, “Methods and compositions for the treatment of metabolic syndrome” (priority 2004, published 2008).

A short description of this series: Pharmacokinetics of 3H-berberine in rabbits, intravenous and intravenous drip. The procedure: 0.1 ml of blood was removed at various times and radiation emissions were measured.
Where [1] appears, read: 5 rabbits, intravenously 25 MBq/kg.
Setting [2] is: four rabbits, intravenous drip 46.25 Mbq/kg.

Under setting [1], 3H-berberine yielded a T1/2α of 1.41 ± 0.16 h and a T1/2β of 35.3 ± 1.3 h. Further, under setting [2], the T1/2α amounted to 1.03 ± 0.11 h and the T1/2β stood at 35.8 ± 2.0 h.
